The values that follow are results of earlier work, collected in paper PMC5099547 (British Journal of Clinical Pharmacology, 2016).

This data set concerns CYP3A4. The following applies: cited from earlier work.

Take cyclosporine: the “degree of CYP3A4 inhibitory activity” value is on record as “weak”.
